Ki data for six substances are collected here from patent US20260327262A1, “BICYCLIC PEPTIDE LIGANDS SPECIFIC FOR EPHA2” (BicycleTx Limited, priority 2019, published 2026).

Chains of the proteins cited; added tags and fusions are not shown. Residues count along the entry.
UniProt P29317, 24-976: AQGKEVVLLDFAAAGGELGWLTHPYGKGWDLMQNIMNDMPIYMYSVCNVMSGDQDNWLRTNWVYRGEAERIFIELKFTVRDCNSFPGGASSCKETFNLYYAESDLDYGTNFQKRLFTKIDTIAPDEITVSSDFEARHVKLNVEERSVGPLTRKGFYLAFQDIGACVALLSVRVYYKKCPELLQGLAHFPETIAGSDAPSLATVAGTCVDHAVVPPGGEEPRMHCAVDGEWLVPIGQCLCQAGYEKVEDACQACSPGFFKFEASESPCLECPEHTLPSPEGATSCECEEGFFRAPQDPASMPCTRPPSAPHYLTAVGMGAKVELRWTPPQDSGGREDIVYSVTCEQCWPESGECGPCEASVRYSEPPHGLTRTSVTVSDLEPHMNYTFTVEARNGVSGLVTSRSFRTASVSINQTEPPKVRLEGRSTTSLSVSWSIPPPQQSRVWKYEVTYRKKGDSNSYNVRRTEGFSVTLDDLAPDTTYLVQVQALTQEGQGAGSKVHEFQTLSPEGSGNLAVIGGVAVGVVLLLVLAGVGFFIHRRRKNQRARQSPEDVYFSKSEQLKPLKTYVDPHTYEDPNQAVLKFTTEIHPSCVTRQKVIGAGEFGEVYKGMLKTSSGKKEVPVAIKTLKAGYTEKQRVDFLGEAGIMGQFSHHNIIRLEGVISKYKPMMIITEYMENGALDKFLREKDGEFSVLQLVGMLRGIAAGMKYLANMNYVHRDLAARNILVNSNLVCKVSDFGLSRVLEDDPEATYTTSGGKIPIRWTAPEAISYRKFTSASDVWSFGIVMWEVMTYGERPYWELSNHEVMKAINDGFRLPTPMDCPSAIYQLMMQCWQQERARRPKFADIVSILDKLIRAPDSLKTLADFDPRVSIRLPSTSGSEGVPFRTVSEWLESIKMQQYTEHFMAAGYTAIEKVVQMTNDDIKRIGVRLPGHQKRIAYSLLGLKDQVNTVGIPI

One may read the pKi as the Ki on a negative log10 scale, so that one unit is a factor of ten.

pKi: −log10 of the molar value.

This assay has as its target human EphA2 (Homo sapiens, UniProt P29317). The experiment in a line: Competition Binding Assay (fluorescence polarisation, competition with fluorescent tracer BCY90).
“A-[HArg]-D-Ci[HyP]LVNPLCiiLEP[dA]WTCiii [BCY12858]” had a pKi of 8.09.

Regarding “A-[HArg]-D-Ci[HyP]LVNPLCiiLEP[dD]WTCiii [BCY12856]”, the pKi is 8.33.

As to “A-[HArg]-D-Ci[HyP]LVNPLCiiL[3,3-DPA]P[dD]WTCiii [BCY12859]”, the pKi is 9.14.

“[d1Nal]-[HArg]-D-Ci[HyP][Cba]VNPLCiiLEP[dA]WTCiii-[dA] [BCY13124]” had a pKi of 8.12.

Regarding “[dA]-[HArg]-D-Ci[HyP][Cba]VNPLCiiLEP[dA]WTCiii-[dA] [BCY13123]”, the pKi was 8.19.

“[dA]-[dA]-D-Ci[HyP]LVNPLCiiLEP[dD]WTCiii [BCY13127]” gave a pKi of 7.83.
